According to article PMC9021956 (2022):

Columns and labels:
[1] = target: HLA-A2402 (Homo sapiens, UniProt P04439, D101N/D140Y/D185E/E176V/E190D/F33S/G103R/G107R/I119L/I121M/I306V/K335N/L105A/L180Q/L300P/N151K/N90K/Q86E/Q94H/R106L/R138H/R89G/T104I/T345S/V100E/W191G/Y123F); test: cell-based
[2] = target: HLA-A3303 (Homo sapiens, UniProt P04439, A270S/D185E/E176V/E277Q/E87N/F33T/G231S/H175R/I121M/I218V/I322F/K168Q/L300P/L318F/M331R/P217A/Q86R/Q94H/R138Q/T323A/T345S/T97I/V358M); test: cell-based
[3] = target: HLA-A1102 (Homo sapiens, UniProt P04439, A114D/D185E/E176A/E43K/F33Y/L180Q/S129P/T187R); test: Peptide competitive binding assay, transfected HMy2.CIR cells, reference ATFQFK(FITC)VER
[4] = target: HLA-A0206 (Homo sapiens, UniProt P04439, D140Y/D185E/D98H/E176V/E277Q/F33Y/G131W/G231S/I119V/I121R/I166T/I218V/L300P/L318F/N151K/N90K/P208A/P217A/Q86G/Q94H/R138H/R169H/T345S); test: cell-based
[5] = target: HLA-A0201 (Homo sapiens, UniProt P04439, D140Y/D185E/D98H/E176V/E277Q/G131W/G231S/I119V/I121R/I166T/I218V/L300P/L318F/N151K/N90K/P208A/P217A/Q86G/Q94H/R138H/R169H/T345S); test: cell-based
[6] = target: HLA-A1101 (Homo sapiens, UniProt P04439, A114D/D185E/E176A/F33Y/L180Q/S129P/T187R); test: cell-based
[7] = target: HLA-A0101 (Homo sapiens, UniProt P04439, A114D/A174V/A182V/D101N/D185E/E176A/E190D/L180R/Q94H/R68K/S129P/T187R/V100A/V91M/W191G); test: Peptide competitive binding assay, transfected HMy2.CIR cells, reference YLEPAK(FITC)AKY
[8] = target: HLA-A0207 (Homo sapiens, UniProt P04439, D140Y/D185E/D98H/E176V/E277Q/G131W/G231S/I119V/I121R/I166T/I218V/L300P/L318F/N151K/N90K/P208A/P217A/Q86G/Q94H/R138H/R169H/T345S/Y123C); test: cell-based
[9] = target: HLA-A0301 (Homo sapiens, UniProt P04439); test: Peptide competitive binding assay, transfected HMy2.CIR cells, reference ATFQFK(FITC)VER
[10] = target: HLA-A3101 (Homo sapiens, UniProt P04439, A270S/D185E/E176V/E277Q/F33T/G231S/G80R/H175R/I121M/I218V/I322F/K168Q/L300P/L318F/M331R/P217A/Q94H/R138Q/T323A/T345S/T97I/V358M); test: as above
[11] = target: HLA-A0203 (Homo sapiens, UniProt P04439, A173T/D140Y/D185E/D98H/E277Q/G131W/G231S/I119V/I121R/I166T/I218V/L180W/L300P/L318F/N151K/N90K/P208A/P217A/Q86G/Q94H/R138H/R169H/T345S); test: cell-based

SMILES | IC50 [1] [µM] | IC50 [3] [µM] | IC50 [5] [µM] | IC50 [6] [µM] | IC50 [8] [µM] | further results
CSCC[C@H](NC(=O)CNC(=O)[C@H](CCC(N)=O)NC(=O)[C@H](Cc1ccc(O)cc1)NC(=O)[C@H](CC(=O)O)NC(=O)[C@H](CC(C)C)NC(=O)[C@@H](N)CC(C)C)C(=O)N[C@@H](CC(C)C)C(=O)N1CCC[C@H]1C(=O)N[C@H](C(=O)O)C(C)C [Epitope P95] | > 15 |  |  |  |  | 
CC[C@H](C)[C@H](NC(=O)[C@H](Cc1c[nH]c2ccccc12)NC(=O)[C@@H](NC(=O)CNC(=O)[C@H](Cc1ccccc1)NC(=O)[C@H](CO)NC(=O)[C@@H](NC(=O)[C@@H](N)CC(C)C)C(C)C)C(C)C)C(=O)N[C@@H](CCCNC(=N)N)C(=O)O [Epitope P4] |  | > 15 | > 15 |  |  | IC50 [2]: > 15 µM; IC50 [4]: > 15 µM
CSCC[C@H](NC(=O)[C@@H](N)CCSC)C(=O)N[C@@H](Cc1c[nH]c2ccccc12)C(=O)N[C@@H](Cc1ccc(O)cc1)C(=O)N[C@@H](Cc1c[nH]c2ccccc12)C(=O)NCC(=O)N1CCC[C@H]1C(=O)N[C@@H](CO)C(=O)N[C@@H](CC(C)C)C(=O)N[C@@H](Cc1ccc(O)cc1)C(=O)O [Epitope P108] | > 15 | > 15 |  | > 15 | > 15 | IC50 [7]: > 15 µM; IC50 [9]: > 15 µM
CC[C@H](C)[C@H](NC(=O)[C@H](CO)NC(=O)[C@H](CO)NC(=O)[C@@H](NC(=O)[C@@H]1CCCN1C(=O)[C@@H](N)CO)[C@@H](C)CC)C(=O)N[C@@H](Cc1ccccc1)C(=O)N[C@@H](CO)C(=O)N[C@@H](CCCNC(=N)N)C(=O)O [Epitope P38] |  |  | > 15 | > 15 |  | IC50 [10]: > 15 µM
CC[C@H](C)[C@H](NC(=O)[C@H](CO)NC(=O)[C@@H]1CCCN1C(=O)[C@H](Cc1ccccc1)NC(=O)[C@H](Cc1ccccc1)NC(=O)[C@H](CC(=O)O)NC(=O)[C@H](CO)NC(=O)[C@@H]1CCCN1C(=O)[C@H](CC(C)C)NC(=O)[C@@H](N)Cc1ccccc1)C(=O)O [Epitope P31] | < 5 |  | < 5 | > 15 | > 15 | IC50 [11]: < 5 µM
